Measurements taken from publication PMC10464304, “Refined read‐out: The hUHRF1 Tandem‐Tudor domain prefers binding to histone H3 tails containing K4me1 in the context of H3K9me2/3” (Protein Science : A Publication of the Protein Society, 2023).
Residue numbers refer to the chain shown, from its start.

Experiments:
Test in all cases: fluorescence polarisation; fluorescence anisotropy titration; 100 nM FITC-labeled peptide in the cuvette, protein added stepwise; 23°C; 100 mM KCl, 20 mM HEPES pH 7.5, 10% v/v glycerol
Details in all cases: both partners purified
[1] = biological target: T1, GST-hUHRF1-TTD (126-280) R207E (human, UniProt Q96T88 126-280, R207E)
T1 construct: Tandem Tudor domain (TTD) of human UHRF1, UniProt Q96T88, residues 126-280; also called TTD R207E; source: E. coli, purified (Glutathione Agarose 4B); not shown: GST, N-terminal, kept
T1 sequence (looked up): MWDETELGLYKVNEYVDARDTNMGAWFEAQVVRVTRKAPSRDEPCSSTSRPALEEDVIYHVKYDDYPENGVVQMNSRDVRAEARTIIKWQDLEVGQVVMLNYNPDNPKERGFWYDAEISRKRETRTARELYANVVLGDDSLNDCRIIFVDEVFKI

[2] = biological target: T2, GST-hUHRF1-TTD (126-280) R207H (human, UniProt Q96T88 126-280, R207H)
T2 construct: Tandem Tudor domain (TTD) of human UHRF1, UniProt Q96T88, residues 126-280; source: E. coli, purified (Glutathione Agarose 4B); not shown: GST, N-terminal, kept
T2 sequence (looked up): T1 sequence (looked up) with E82H

[3] = biological target: T3, GST-hUHRF1-TTD (126-280) E153Q (human, UniProt Q96T88 126-280, E153Q)
T3 construct: Tandem Tudor domain (TTD) of human UHRF1, UniProt Q96T88, residues 126-280; source: E. coli, purified (Glutathione Agarose 4B); not shown: GST, N-terminal, kept
T3 sequence (looked up): T1 sequence (looked up) with E28Q, E82R

[4] = biological target: T4, GST-hUHRF1-TTD (126-280) A208G (human, UniProt Q96T88 126-280, A208G)
T4 construct: Tandem Tudor domain (TTD) of human UHRF1, UniProt Q96T88, residues 126-280; source: E. coli, purified (Glutathione Agarose 4B); not shown: GST, N-terminal, kept
T4 sequence (looked up): T1 sequence (looked up) with E82R, A83G

[5] = biological target: T5, GST-hUHRF1-TTD (126-280) D142E (human, UniProt Q96T88 126-280, D142E)
T5 construct: Tandem Tudor domain (TTD) of human UHRF1, UniProt Q96T88, residues 126-280; source: E. coli, purified (Glutathione Agarose 4B); not shown: GST, N-terminal, kept
T5 sequence (looked up): T1 sequence (looked up) with D17E, E82R

[6] = biological target: T6, GST-fused Tandem-Tudor domain (TTD) of human UHRF1, residues 126-280, wild type (human, UniProt Q96T88 126-280)
T6 construct: Tandem Tudor domain (TTD) of human UHRF1, UniProt Q96T88, residues 126-280; borders as in Rothbart et al., 2012; also called hUHRF1-TTD; UHRF1-TTD; source: E. coli, purified (Glutathione Agarose 4B); not shown: GST, N-terminal, kept
T6 sequence (looked up): T1 sequence (looked up) with E82R

[7] = biological target: T7, GST-hUHRF1-TTD (126-280) D142N (human, UniProt Q96T88 126-280, D142N)
T7 construct: Tandem Tudor domain (TTD) of human UHRF1, UniProt Q96T88, residues 126-280; source: E. coli, purified (Glutathione Agarose 4B); not shown: GST, N-terminal, kept
T7 sequence (looked up): T1 sequence (looked up) with D17N, E82R

[8] = biological target: T8, GST-hUHRF1-TTD (126-280) M224A (human, UniProt Q96T88 126-280, M224A)
T8 construct: Tandem Tudor domain (TTD) of human UHRF1, UniProt Q96T88, residues 126-280; source: E. coli, purified (Glutathione Agarose 4B); not shown: GST, N-terminal, kept
T8 sequence (looked up): T1 sequence (looked up) with E82R, M99A

[9] = biological target: T9, GST-hUHRF1-TTD (126-280) E153D (human, UniProt Q96T88 126-280, E153D)
T9 construct: Tandem Tudor domain (TTD) of human UHRF1, UniProt Q96T88, residues 126-280; also called TTD E153D; source: E. coli, purified (Glutathione Agarose 4B); not shown: GST, N-terminal, kept
T9 sequence (looked up): T1 sequence (looked up) with E28D, E82R

[10] = biological target: T10, GST-hUHRF1-TTD (126-280) F278A (human, UniProt Q96T88 126-280, F278A)
T10 construct: Tandem Tudor domain (TTD) of human UHRF1, UniProt Q96T88, residues 126-280; source: E. coli, purified (Glutathione Agarose 4B); not shown: GST, N-terminal, kept
T10 sequence (looked up): T1 sequence (looked up) with E82R, F153A

[11] = biological target: T11, GST-hUHRF1-TTD (126-280) D142A (human, UniProt Q96T88 126-280, D142A)
T11 construct: Tandem Tudor domain (TTD) of human UHRF1, UniProt Q96T88, residues 126-280; also called TTD D142A mutant; source: E. coli, purified (Glutathione Agarose 4B); not shown: GST, N-terminal, kept
T11 sequence (looked up): T1 sequence (looked up) with D17A, E82R

B1: FITC-labeled H3(1-19) peptide with K9me3 (peptide, UniProt P68431 2-20, looked up)
peptide: ARTKQTARKSTGGKAPRKQ
modifications: K9me3 (trimethyl-lysine at 9); FITC-labeled
notes: histone H3 N-terminal tail, residues 1-19; also called H3K9me3; H3 K9me3
For B1, which Kd [1] is on record?
The Kd was 0.22 µM.

And the Kd [2]?
Its Kd is 9.7 µM.

And the Kd [3]?
Its Kd is 13 µM.

What about the Kd [4] of the same binder?
The Kd was 9.5 µM.

And the Kd [5]?
The Kd was 0.98 µM.

What about the Kd [6] of the same binder?
Its Kd is 0.68 µM.

And the Kd [7]?
Its Kd is 4.5 µM.

And the Kd [8]?
The Kd was 1.4 µM.

What about the Kd [9] of the same binder?
Its Kd is 0.64 µM.

And the Kd [10]?
Its Kd is 7.9 µM.

What about the Kd [11] of the same binder?
Its Kd is 4.9 µM.
